This assay deals with Urokinase-type plasminogen activator (Homo sapiens, UniProt P00749).
`[H]/N=C(\N)c1ccc2cc(C(=O)Nc3ccc(CN)cc3)ccc2c1` showed a Ki of 0.04 µM. The compound `N=C(N)c1ccc2cc(C(=O)Nc3cccc(OC4CCCC4)c3)ccc2c1` registered an inhibition constant Ki of 0.028 µM. Compound `N#Cc1ccc2cc(NC(=O)c3ccccc3)ccc2c1` registered an inhibition constant (Ki) of 1.9 µM.

On to `N=C(N)c1ccc2cc(C(=O)Cc3ccccc3)ccc2c1`, for which the Ki was found to be 7.98 µM. Compared with the last compound, the Ki is about 4.2-fold higher.
